Source: patent US20190046600A1, “COMPOSITIONS AND USES THEREOF” (priority 2016, published 2019)

Molecular target: T1, recombinant human caspase 3 (Homo sapiens, UniProt P42574)
T1 construct: purchased Enzo Life Sciences BML-SE169-5000
T1 sequence (P42574 29-175 limits assumed): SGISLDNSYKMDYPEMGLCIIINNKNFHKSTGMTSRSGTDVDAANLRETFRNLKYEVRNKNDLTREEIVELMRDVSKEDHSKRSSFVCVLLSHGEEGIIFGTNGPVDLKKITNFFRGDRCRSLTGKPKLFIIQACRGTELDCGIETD
T1 sequence (P42574 176-277 limits assumed): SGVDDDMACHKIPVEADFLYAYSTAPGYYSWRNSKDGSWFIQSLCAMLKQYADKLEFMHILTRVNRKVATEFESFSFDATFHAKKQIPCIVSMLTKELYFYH
Assay: Apo-ONE Homogeneous Caspase-3/7 assay with recombinant caspase-3
Assay type: biochemical
Details: 0.1 or 0.3 U enzyme

With Ac-DEVD-CHO the caspase-3 activity was “inhibited the activity of caspase-3 in a dose-dependent manner” and the caspase-3 activity (listed as DEVD-CHO) was “inhibited the caspase-3 activity in a dose-dependent fashion”.
